Like-named read-outs stand apart in the source and are kept apart here.
Columns and labels:
[1] = not given; remark: listed apart in the source
[2] = tested on: murine T-cell lymphoma EL4; conditions: 1 x 7.5 mg DOX eq./kg i.v.
Procedure: The in vivo antitumour effect of micellar diblock polymer conjugate of Example 28 carrying doxorubicin (DOX-DB) was studied on a model of murine T-cell lymphoma EL4 in the C57BL/6 inbred strains of mice. The conjugate was administered to mice intravenously (i.v.) in a single dose equivalent to 7.5 mg of doxorubicin/kg. The drug was injected 8 days after subcutaneous administration of 1 x 10^5 EL4 tumour cells, at a time when tumours are developed and the tumour bed size is about 6-8 mm in diameter. […] Further, the free doxorubicin (DOX) was used for treatment, injected at a total dose of 10 mg/kg, which, due to the different pharmacokinetics of a low molecular weight drug and the associated danger of high systemic toxicity, was injected in two partial intravenous doses on the 8th and 12th day after transplantation of tumour cells (each dose of 5 mg of doxorubicin).
Days mean the death of animals after administration of tumour cells (1 x 10^5 cells EL4 s.c. on day 0), LTS ("long term survivor") means long-term surviving mice without evidence of tumour (at least until day 70 after administration of tumour cells). The last line contains information about the median survival in groups.

Substance: [raft-poly(HPMA-co-MA-AH-NHN=DOX)]-GFLG-PPO-NH2 [DB-DOX]
- amount of released DOX (phosphate buffer pH 5.0, 37°C, after 9 hours of incubation): more than 70%
- amount of released DOX (phosphate buffer pH 7.4, 37°C, in 24 hours): up to 9%
- accumulation in the tumour tissue relative to free drug at the maximum tolerated dose ([1]; EL4 T-cell lymphoma, 10 mg Dox/kg vs free drug 2 x 5 mg DOX/kg): more than 20 fold
- amount of drug in the tumour tissue relative to the linear PHPMA conjugate (PHPMA-DOX) ([1]; EL4 T-cell lymphoma, dosage 10 mg Dox/kg): 4 times
- time of circulation in blood compared with PHPMA-DOX and free DOX ([1]; mice with EL4 T-cell lymphoma, 10 mg Dox/kg): circulates in the bloodstream considerably longer
- signs of systemic toxicity (reduced body weight, bristly hair, hunched position, eating disorders) [2]: did not induce in the treated mice any observable signs of systemic toxicity

Reference: EP3442594B1, “BLOCK COPOLYMER FOR […] RESISTANCE OF TUMOURS TO CHEMOTHERAPY, ITS POLYMER-DRUG CONJUGATE, PHARMACEUTICAL COMPOSITION CONTAINING THEM, METHOD OF PREPARATION AND USE THEREOF” (Ustav makromolekularni chemie AV CR, v.v.i., priority 2016, dated 2017)
